Experiments:
[1] = biological target: interaction between glucokinase (GK) and glucokinase regulatory protein (GKRP) (Homo sapiens, UniProt Q14397); conditions: read-out: GK-GKRP IC50 (Binding); avi-tagged GKRP, GK-fluorescein, AlphaScreen beads
[2] = biological target: GKRP (Glucokinase Regulatory Protein) with human His-hepatic GK (Homo sapiens, UniProt Q14397); conditions: read-out: GK-GKRP EC50 (LC MS/MS-2); 13C-glucose-6-phosphate formation; 280 nM GKRP (10×), 30 nM GK (5×)

Amino acid sequences for entries named in this document (tags omitted).
UniProt Q14397, whole entry: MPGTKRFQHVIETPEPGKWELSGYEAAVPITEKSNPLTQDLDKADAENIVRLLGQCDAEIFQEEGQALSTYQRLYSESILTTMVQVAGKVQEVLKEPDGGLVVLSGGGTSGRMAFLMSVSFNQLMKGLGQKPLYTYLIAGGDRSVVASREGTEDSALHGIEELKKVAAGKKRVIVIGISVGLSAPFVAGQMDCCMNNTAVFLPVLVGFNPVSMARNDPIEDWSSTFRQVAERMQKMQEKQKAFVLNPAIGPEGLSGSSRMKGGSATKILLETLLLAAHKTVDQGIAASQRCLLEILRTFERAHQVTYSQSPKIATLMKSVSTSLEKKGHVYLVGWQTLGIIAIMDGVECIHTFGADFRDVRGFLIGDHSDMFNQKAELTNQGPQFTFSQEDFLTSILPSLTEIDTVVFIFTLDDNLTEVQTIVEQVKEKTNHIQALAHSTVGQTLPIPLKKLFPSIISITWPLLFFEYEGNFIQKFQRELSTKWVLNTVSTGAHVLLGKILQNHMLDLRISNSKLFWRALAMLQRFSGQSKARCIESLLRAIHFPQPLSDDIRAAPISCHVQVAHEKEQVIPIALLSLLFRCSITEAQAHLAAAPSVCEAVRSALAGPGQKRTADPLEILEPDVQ

Structure (SMILES)	IC50 [1]	EC50 [2]
CC(O)(c1ccc(N2CCN(S(=O)(=O)c3ccc(N)nc3)C[C@@H]2CC2CCOCC2)cc1)C(F)(F)F (single isomer, unassigned) [Example 127 Peak #1]	51 nM	98 nM
CC(O)(c1ccc(N2CCN(S(=O)(=O)c3ccc(N)nc3)C[C@@H]2CC2CCOCC2)cc1)C(F)(F)F (single isomer, unassigned) [Example 127 Peak #2]	48 nM	72 nM

Source: patent US8431563B2 (priority 2010, dated 2013)
